Experimental data: patent publication US11091463B2, “Amide-substituted pyridinyltriazole derivatives and uses thereof” (BAYER PHARMA AKTIENGESELLSCHAFT, priority 2016, dated 2021)
Read-outs that look alike come from different tables or passages of the source.

Protein sequences, listed by entry. Tags and fused reporters are not part of them.
UniProt P37288, whole entry: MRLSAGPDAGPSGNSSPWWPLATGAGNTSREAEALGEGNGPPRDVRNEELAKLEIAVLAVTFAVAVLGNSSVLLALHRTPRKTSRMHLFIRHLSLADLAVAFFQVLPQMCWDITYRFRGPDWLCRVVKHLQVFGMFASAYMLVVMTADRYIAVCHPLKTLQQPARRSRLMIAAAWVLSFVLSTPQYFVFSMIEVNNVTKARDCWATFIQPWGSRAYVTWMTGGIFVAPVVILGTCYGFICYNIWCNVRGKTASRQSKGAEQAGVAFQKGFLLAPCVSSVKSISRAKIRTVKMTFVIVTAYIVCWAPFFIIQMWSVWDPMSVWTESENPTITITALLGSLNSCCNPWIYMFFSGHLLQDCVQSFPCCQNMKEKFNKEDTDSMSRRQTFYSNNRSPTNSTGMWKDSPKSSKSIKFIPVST
UniProt P30518, whole entry: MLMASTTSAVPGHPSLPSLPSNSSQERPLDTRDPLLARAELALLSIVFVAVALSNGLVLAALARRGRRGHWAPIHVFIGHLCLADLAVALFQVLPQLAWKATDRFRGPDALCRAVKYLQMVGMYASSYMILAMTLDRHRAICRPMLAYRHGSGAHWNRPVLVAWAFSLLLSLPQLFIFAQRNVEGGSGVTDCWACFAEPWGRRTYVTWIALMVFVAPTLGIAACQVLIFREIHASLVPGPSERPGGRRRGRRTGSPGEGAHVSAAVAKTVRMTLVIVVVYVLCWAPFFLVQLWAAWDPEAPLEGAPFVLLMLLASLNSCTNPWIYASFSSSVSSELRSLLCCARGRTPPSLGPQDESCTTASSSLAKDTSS

Experiments:
human V1a receptor = human V1a receptor (Homo sapiens, UniProt P37288); experiment: Cellular in vitro assay for vasopressin receptor activity, V1a receptor cell line (photoprotein luminescence); assay type: cell-based; details: for ratio IC50 hV2/hV1a: selectivity ratio; for IC50: read-out: IC50 hV1a, cell line transfected with human V1a receptor
human V2 receptor = human V2 receptor (Homo sapiens, UniProt P30518); experiment: Cellular in vitro assay for vasopressin receptor activity, V2 receptor cell line (CRE-luciferase); assay type: cell-based; details: read-out: IC50 hV2, cell line transfected with human V2 receptor
[1] = Table 1B, comparative prior art examples of WO 2011/104322-A1
[2] = Table 1C, comparative prior art examples of WO 2016/071212-A1

Structure (SMILES) | ratio IC50 hV2/hV1a (human V1a receptor; [1]) | IC50 (human V1a receptor; [1]) [nM] | IC50 (human V2 receptor; [1]) [nM] | ratio IC50 hV2/hV1a (human V1a receptor; [2]) | IC50 (human V1a receptor; [2]) [nM] | IC50 (human V2 receptor; [2]) [nM]
NC(=O)Cn1nc(-c2ccccc2Cl)nc1Cn1nc(-c2ccc(Cl)cc2)n(C[C@H](O)C(F)(F)F)c1=O | 0.053 | 1320 | 69.9 | – | – | –
O=c1n(Cc2nc(CO)n(-c3ccccc3C(F)(F)F)n2)nc(-c2ccc(Cl)cc2)n1C[C@H](O)C(F)(F)F | – | – | – | 8.78 | – | –
NC(=O)Cn1nc(Cc2ccccc2C(F)(F)F)nc1Cn1nc(-c2ccc(Cl)cc2)n(CC(O)C(F)(F)F)c1=O (single isomer, unassigned) [WO 2011/104322 Example 67] | 0.462 | 2460 | 1140 | – | – | –
NC(=O)C(c1ccccc1Cl)n1cc(Cn2nc(-c3ccc(Cl)cc3)n(C[C@H](O)C(F)(F)F)c2=O)nn1 (some centres unmarked) | 0.170 | 324 | 55.1 | – | – | –
NC(=O)c1cc(Cn2nc(-c3ccc(Cl)cc3)n(C[C@H](O)C(F)(F)F)c2=O)cc(-c2ccccc2Cl)c1 | 0.03 | 2220 | 70.7 | – | – | –
NC(=O)c1ccc(Cn2nc(-c3ccc(Cl)cc3)n(C[C@H](O)C(F)(F)F)c2=O)cc1-c1ccccc1Cl | 0.86 | 280 | 241 | – | – | –
NC(=O)Cn1nc(Cc2ccccc2C(F)(F)F)nc1Cn1nc(-c2ccc(Cl)cc2)n(CC(O)C(F)(F)F)c1=O (single isomer, unassigned) [WO 2011/104322 Example 66] | 0.052 | 1830 | 95 | – | – | –
C[C@H](O)c1nc(Cn2nc(-c3ccc(Cl)cc3)n(C[C@H](O)C(F)(F)F)c2=O)nn1-c1ccccc1Cl | – | – | – | 3.43 | 0.6 | 2.2
O=c1n(Cc2nc(CO)n(-c3ccccc3Cl)n2)nc(-c2ccc(Cl)cc2)n1C[C@H](O)C(F)(F)F | – | – | – | 6.94 | 1.2 | 8.6
NC(=O)Cn1nc(Cn2nc(-c3ccc(Cl)cc3)n(CC(O)C(F)(F)F)c2=O)nc1Cc1ccccc1C(F)(F)F (single isomer, unassigned) [WO 2011/104322 Example 64] | 1.049 | 32.9 | 34.5 | – | – | –
NC(=O)Cn1nc(Cn2nc(-c3ccc(Cl)cc3)n(CC(O)C(F)(F)F)c2=O)nc1Cc1ccccc1C(F)(F)F (single isomer, unassigned) [WO 2011/104322 Example 63] | 0.622 | 6.8 | 4.2 | – | – | –
NC(=O)c1ccc(Cn2nc(-c3ccc(Cl)cc3)n(C[C@H](O)C(F)(F)F)c2=O)cc1-c1ccccc1C(F)(F)F | 1.98 | 459 | 909 | – | – | –
C[C@@H](O)c1nc(Cn2nc(-c3ccc(Cl)cc3)n(C[C@H](O)C(F)(F)F)c2=O)nn1-c1ccccc1Cl | – | – | – | 6.48 | – | –
